Measured values from US20170189547A1, “Biodegradable Drug Delivery Composition” (Durect Corporation, priority 2010, published 2017).

Sequences of proteins named here, by UniProt entry; tags and fusion partners are left off. Residues count along the entry.
UniProt P01241, 27-217: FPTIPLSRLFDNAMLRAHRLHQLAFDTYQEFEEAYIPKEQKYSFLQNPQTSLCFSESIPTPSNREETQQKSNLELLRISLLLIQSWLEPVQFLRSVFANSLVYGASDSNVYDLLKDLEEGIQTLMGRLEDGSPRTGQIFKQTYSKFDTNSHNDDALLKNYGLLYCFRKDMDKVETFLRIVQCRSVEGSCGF

Molecular target: T1, hGH (Homo sapiens, UniProt P01241)
T1 construct: purchased Hospira, Adelaide
Assay: Complexation capability of hGH with anionic and cationic agents (non-complexed hGH in supernatant by RPLC)
Format: physicochemical
Conditions: concentration ratio 1:10
Method: Additional complexation agents were tested in vitro for their ability to precipitate rhGH.
Human growth hormone (purchased from Hospira, Adelaide) was complexed with poly lysine, poly arginine, poly adenylic acid (poly-A), or poly thymine (poly-T) in appropriate ratios (as specified in Table 28) to form suspensions. Supernatant was separated from precipitate (ppt) by centrifugation of the complexed material suspensions. The supernatant solution was analyzed for non-complexed hGH by reverse phase liquid chromatography (RPLC).

Observation (hGH with complexing agent): Cloudy ppt
Supernatant Analysis (% of hGH) (non-complexed hGH by RPLC): 15.8 % of hGH
Substance: Poly-Arginine
